Laboratory results reported in patent publication US20110040072A1, “MONO AND DI-SUBSTITUTED OXYCODONE COMPOUNDS AND COMPOSITIONS” (SHIRE LLC, priority 2006, published 2011).

Assay: Oral bioavailability / oral pharmacokinetics of oxycodone conjugates in rats

Which “AUC % (Oral Bioavailability)” value (reference = 100) does the source give for OC-β-alanine here?
The value was 144%.

What about the “Oral (% AUC)” value (relative to OXY = 100, n = 4 animals, analysis by LC-MS) of the same substance?
The value was 144 % AUC.
